Results as given in patent US20060263368A1, “Targeted chimeric molecules for cancer therapy” (Research Development Foundation, priority 2005, published 2006).

How the values were obtained:
[1] = tested on: AsPc-1, Capan-1, Capan-2, and L3.6pl; settings: pancreatic cancer cell lines
[2] = tested on: A375 doxorubicin-resistant (A375DR); experiment: Cytotoxicity on parental and doxorubicin-resistant cells; type: cell-based, human
Protocol: To examine the cytotoxicity of GrB/scFvMEL or MEL/sFv/rGel, melanoma cells were plated on 96-well plates at a density of 4×10^3 cells per well and allowed to adhere for 24 hr at 37° C. in 5% CO2. After 24 hr, the medium was replaced with medium that contained various concentrations of fusion proteins. […] The percent of control refers to the percentage of cells in the drug-treated wells compared to that of control (untreated) wells.
Expression of the gp240 antigen was assessed by ELISA using ZME-018 antibody specifically recognizing gp240 antigen.

In the case of `O=c1[nH]cc(F)c(=O)[nH]1` [5-Fluorouracil, 5-fluorouracil], the “cytotoxic effect of agent combined with scFv23/TNF” value [1] is reported as “synergistic”.

`COc1cccc2c1C(=O)c1c(O)c3c(c(O)c1C2=O)C[C@@](O)(C(=O)CO)C[C@@H]3O[C@H]1C[C@H](N)[C@H](O)[C@H](C)O1` [Doxorubicin] was tested, and the “cytotoxic effect of agent combined with scFv23/TNF” value [1] was “antagonistic” and the “Resistance Index (I.C.50 on A375DR)/(I.C.50 on A375)” value [2] was 400.
